Assay results from US6916812B2, “Alpha-aminoamide derivatives as melanocortin agonists” (Bristol-Myers Squibb Company, priority 2001, dated 2005).
Like-named read-outs stand apart in the source and are kept apart here.

The chains behind the UniProt entries cited, without tags or fusion partners.
UniProt P32245, whole entry: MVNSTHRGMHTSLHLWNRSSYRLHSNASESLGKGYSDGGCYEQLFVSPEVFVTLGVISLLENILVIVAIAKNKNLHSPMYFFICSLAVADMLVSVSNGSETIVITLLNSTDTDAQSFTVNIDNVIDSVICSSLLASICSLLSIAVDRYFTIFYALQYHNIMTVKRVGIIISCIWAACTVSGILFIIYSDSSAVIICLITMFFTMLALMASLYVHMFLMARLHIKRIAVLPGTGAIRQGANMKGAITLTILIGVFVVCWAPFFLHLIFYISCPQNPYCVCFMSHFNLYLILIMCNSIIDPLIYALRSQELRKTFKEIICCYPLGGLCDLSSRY

Target: cloned human MC4R (Homo sapiens, UniProt P32245)
Assay: Membrane binding assay: competitive inhibition of [125I]NDP-α-MSH binding
Details: for Displacement Rate (%) (at 10 μM): [125I]NDP-α-MSH displacement; for IC50: read-out: MC4R IC50

SMILES | Displacement Rate (%) (at 10 μM) (tested form: TFA) | IC50 (tested form: TFA) | Displacement Rate (%) (at 10 μM) (tested form: bis-TFA) | IC50 (tested form: bis-TFA) | further results
N[C@@H](Cc1ccc(OCC2CC2)cc1)C(=O)N1CCN(Cc2cccc(Cl)c2Cl)CC1 | – | – | ++ (++ = 71-90) | > 3000 nM | –
N[C@@H](Cc1ccc(OCCSc2ccccc2)cc1)C(=O)N1CCN(Cc2cccc(Cl)c2Cl)CC1 | +++ (+++ = 91-100) | 1500 to 3000 nM | – | – | –
CCOc1ccccc1-c1ccc(C[C@H](N)C(=O)N2CCN(Cc3cccc(Cl)c3Cl)CC2)cc1 | – | – | – | – | Displacement Rate (%) (at 10 μM) (tested form: HCl): +++ (+++ = 91-100); IC50 (tested form: HCl): 1500 to 3000 nM
N[C@@H](Cc1ccc(OCCOc2ccccc2Cl)cc1)C(=O)N1CCN(Cc2cccc(Cl)c2Cl)CC1 | +++ (+++ = 91-100) | 1500 to 3000 nM | – | – | –
CC(C)CCOc1ccc(C[C@H](N)C(=O)N2CCN(Cc3cccc(Cl)c3Cl)CC2)cc1 | – | – | +++ (+++ = 91-100) | < 1500 nM | –
N[C@@H](Cc1ccc(OCCc2cccs2)cc1)C(=O)N1CCN(Cc2cccc(Cl)c2Cl)CC1 | +++ (+++ = 91-100) | < 1500 nM | – | – | –
N[C@@H](Cc1ccc(OCc2ccccc2CCc2ccccc2)cc1)C(=O)N1CCN(Cc2cccc(Cl)c2Cl)CC1 | – | – | +++ (+++ = 91-100) | < 1500 nM | –
CC(C)SCCOc1ccc(C[C@H](N)C(=O)N2CCN(Cc3cccc(Cl)c3Cl)CC2)cc1 | – | – | ++ (++ = 71-90) | 1500 to 3000 nM | –
CC(C)c1cccc(-c2ccc(C[C@H](N)C(=O)N3CCN(Cc4cccc(Cl)c4Cl)CC3)cc2)c1 | – | – | – | – | Displacement Rate (%) (at 10 μM) (tested form: HCl): +++ (+++ = 91-100); IC50 (tested form: HCl): < 1500 nM
N[C@@H](Cc1ccc(OCCOc2c(F)c(F)c(F)c(F)c2F)cc1)C(=O)N1CCN(Cc2cccc(Cl)c2Cl)CC1 | – | – | – | – | Displacement Rate (%) (at 10 μM) (tested form: TFA salt): +++ (+++ = 91-100); IC50 (tested form: TFA salt): < 1500 nM
N[C@@H](Cc1ccc(OCCCC2CCCC2)cc1)C(=O)N1CCN(Cc2cccc(Cl)c2Cl)CC1 | +++ (+++ = 91-100) | < 1500 nM | – | – | –
N[C@@H](Cc1ccc(OCCc2ccsc2)cc1)C(=O)N1CCN(Cc2cccc(Cl)c2Cl)CC1 | +++ (+++ = 91-100) | < 1500 nM | – | – | –

Further lines, with some results ahead:

Displacement Rate (%) (at 10 μM) (tested form: TFA) | IC50 (tested form: TFA) | Displacement Rate (%) (at 10 μM) (tested form: bis-TFA) | IC50 (tested form: bis-TFA) | SMILES | further results
+++ (+++ = 91-100) | < 1500 nM | – | – | CCCCCCOc1ccc(C[C@H](N)C(=O)N2CCN(Cc3cccc(Cl)c3Cl)CC2)cc1 | –
+++ (+++ = 91-100) | < 1500 nM | – | – | N[C@@H](Cc1ccc(OCCCOc2ccccc2)cc1)C(=O)N1CCN(Cc2cccc(Cl)c2Cl)CC1 | –
– | – | +++ (+++ = 91-100) | 1500 to 3000 nM | N[C@@H](Cc1ccc(OC2CCCC2)cc1)C(=O)N1CCN(Cc2cccc(Cl)c2Cl)CC1 | –
+++ (+++ = 91-100) | < 1500 nM | – | – | N[C@@H](Cc1ccc(OCC2CCCC2)cc1)C(=O)N1CCN(Cc2cccc(Cl)c2Cl)CC1 | –
+++ (+++ = 91-100) | < 1500 nM | – | – | N[C@@H](Cc1ccc(OCCOc2ccccc2)cc1)C(=O)N1CCN(Cc2cccc(Cl)c2Cl)CC1 | –
+++ (+++ = 91-100) | < 1500 nM | – | – | Cc1cccc(OCCOc2ccc(C[C@H](N)C(=O)N3CCN(Cc4cccc(Cl)c4Cl)CC3)cc2)c1 | –
– | – | +++ (+++ = 91-100) | < 1500 nM | CC(C)(C)CCOc1ccc(C[C@H](N)C(=O)N2CCN(Cc3cccc(Cl)c3Cl)CC2)cc1 | –
